Biological target: T1, MAO-A (Homo sapiens, UniProt P21397)
T1 construct: purchased Sigma-Aldrich
Experiment: continuous spectrophotometric MAO-A inhibition assay
Format: biochemical
Conditions: 100 μM
Procedure: Both monoamine oxidase A (MAO-A) and B (MAO-B) protein and the reagents for the chromogenic solution of vanillic acid (4-hydroxy-3-methoxylbenzoic acid, 97% purity), 4-aminoantipyrine (reagent grade), horseradish peroxidase and the substrate tyramine hydrochloride (minimum 99% purity) as well as the potassium phosphate buffer, which was prepared using potassium phosphate dibasic trihydrate (≥99% ReagentPlus™) and potassium phosphate monobasic (minimum 98% purity, molecular biology tested), were purchased from Sigma-Aldrich (St. Louis, MO, USA) for the spectrophotometric assay.
The protocol for continuous spectrophotometric assay (Holt et al., [1997]) was followed in the activity measurements. […] The background signal was measured using multilabel reader (Victor^TM X4, 2030 Multilabel Reader, PerkinElmer, Waltham, MA, USA) at A490 before reaching the total 200 μl volume by adding 20 μl of tyramine to final concentration of 0.5 mM on the plate. […] After adding the substrate, the plates were measured 300 times every 15 s using 1 s exposure time. […]
Based on the activity measurement, suitable concentrations were chosen for both MAO-B and MAO-A to be used in the inhibition studies (Supplementary Figures S1, S2, and S5, Table 1, Supplementary Table S1). The experiment conditions should produce absorbance change of ~0.35 (Holt et al., [1997]). […]

The chains behind the UniProt entries cited, without tags or fusion partners.
UniProt P21397, whole entry: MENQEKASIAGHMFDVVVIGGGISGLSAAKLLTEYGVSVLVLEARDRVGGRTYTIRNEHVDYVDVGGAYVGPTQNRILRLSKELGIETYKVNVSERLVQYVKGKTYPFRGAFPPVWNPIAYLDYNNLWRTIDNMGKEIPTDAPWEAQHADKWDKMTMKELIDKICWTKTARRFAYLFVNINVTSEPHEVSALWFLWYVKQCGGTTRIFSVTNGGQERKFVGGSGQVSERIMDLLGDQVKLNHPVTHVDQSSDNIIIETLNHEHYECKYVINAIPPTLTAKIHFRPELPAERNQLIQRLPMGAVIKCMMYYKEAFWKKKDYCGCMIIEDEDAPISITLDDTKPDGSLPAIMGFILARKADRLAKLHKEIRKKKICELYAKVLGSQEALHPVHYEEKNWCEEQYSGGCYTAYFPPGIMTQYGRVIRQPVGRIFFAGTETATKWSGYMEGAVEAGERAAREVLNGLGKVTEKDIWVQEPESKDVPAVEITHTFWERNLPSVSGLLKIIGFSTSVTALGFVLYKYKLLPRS

SMILES: C#CCN(C)CCCOc1ccc(Cl)cc1Cl [clorgyline, reference compound]
- MAO-A inhibition %: 100.89^(2) %

Source: article PMC5840146, “Structure-Activity Relationship Analysis of 3-Phenylcoumarin-Based Monoamine Oxidase B Inhibitors” (Frontiers in Chemistry, 2018)
